Test results reported in EP3771713A1 (dated 2021).

The chains behind the UniProt entries cited, without tags or fusion partners.
UniProt P21554, whole entry: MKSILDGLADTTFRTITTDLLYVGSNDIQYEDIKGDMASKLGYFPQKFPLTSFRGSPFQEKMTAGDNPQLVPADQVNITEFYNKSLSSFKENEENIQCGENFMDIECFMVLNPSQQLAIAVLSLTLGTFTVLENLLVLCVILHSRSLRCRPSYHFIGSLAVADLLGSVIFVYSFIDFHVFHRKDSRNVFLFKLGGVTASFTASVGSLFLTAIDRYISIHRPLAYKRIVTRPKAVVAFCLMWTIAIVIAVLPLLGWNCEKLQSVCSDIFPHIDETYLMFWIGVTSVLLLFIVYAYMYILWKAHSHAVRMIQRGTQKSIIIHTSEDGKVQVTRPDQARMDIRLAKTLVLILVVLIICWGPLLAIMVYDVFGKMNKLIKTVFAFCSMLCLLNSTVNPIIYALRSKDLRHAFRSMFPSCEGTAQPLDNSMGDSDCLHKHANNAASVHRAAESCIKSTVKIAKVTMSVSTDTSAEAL

How the values were obtained:
hCB1R [1] = biological target: T1, hCB1R (Homo sapiens, UniProt P21554); test: biochemical; format: binding
hCB1R [2] = biological target: T1, hCB1R; details: read-out: Ki hCB1R (value with reference superscript); cited from earlier work

For Cc1ccc(Cn2nc(C(=O)NC3C4(C)CCC(C4)C3(C)C)cc2-c2ccc(Cl)c(C)c2)cc1 (stereo not drawn) [SR-144,528, reference compound], the Ki (hCB1R [1]) is given as 794 nM, the Ki (hCB1R [1]; Ki hCB1R) is given as 687 nM and the Ki (hCB1R [2]) is given as 264 nM.

Like-named read-outs stand apart in the source and are kept apart here.
